A short description of series [1]: TAXOL solubilized in MOPC micelle suspension. The series is classed as physicochemical. The procedure: The concentration of TAXOL® in aqueous solution or aqueous micelle suspension was detected and measured using spectrophotometric absorbance at a wavelength of 230 nm (FIG. 21). The concentration of TAXOL® in a solution or suspension could be measured in the range of 5-50 micromolar. For concentrations higher than 50 micromolar, samples were diluted in methanol and the original concentrations were back-calculated.
Samples were prepared containing the required aliquot of TAXOL® in methanol and MOPC (a micelle forming surfactant) in chloroform. These components were mixed together in glass culture tubes, and the mixture was dried and kept under vacuum for approximately 15 hours to evaporate the solvent. MOPC was chosen because it has an acyl chain composition that matches the di-chain phospholipid, stearoyloleoylphosphatidylcholine, that was used to form the lipid bilayers of encapsulating liposomes, as discussed below. […] Surfactants with high CMCs (e.g., in the mM range) readily dissolve lipid membranes, even when the membranes contain cholesterol.
The dried MOPC/TAXOL® film was then hydrated with buffer (10 mM phosphate buffer in 0.8% saline at pH 7.4), centrifuged at 2000 rpm for ten minutes to spin down any undissolved TAXOL® (depending on the ratio of MOPC to TAXOL®, the drug can precipitate out as small crystals detectable with an optical light microscope). The remaining supernatant is then dissolved in methanol and assayed for TAXOL® content. TAXOL® was quantified against the calibration curve of TAXOL® in methanol (FIG. 21). The graph of FIG. 22 represents the maximum amount of TAXOL® in aqueous micelle suspension as a function of time after preparation.
To evaluate how much TAXOL® can be solubilized by MOPC micelles as a function of MOPC concentration, we measured the amount of TAXOL® solubilized by MOPC micelles as the concentration of MOPC was increased from 0 to 20 mM. […] It is expected that TAXOL® will keep pace with MOPC concentration, possibly up to the solubility limit of MOPC which is in the molar range. […]

Series [2] can be described thus: TAXOL loading in liposomes hydrated with micellized MOPC/TAXOL. The series is classed as physicochemical. The conditions noted are these: micellized MOPC 1.5 mM / 0.25 mM TAXOL.

Structures are written as SMILES.

Take `CC(=O)O[C@H]1C(=O)[C@@]2(C)[C@H]([C@H](OC(=O)c3ccccc3)[C@]3(O)C[C@H](OC(=O)[C@H](O)[C@@H](NC(=O)c4ccccc4)c4ccccc4)C(C)=C1C3(C)C)[C@]1(OC(C)=O)CO[C@@H]1C[C@@H]2O` [TAXOL®]: the “limiting TAXOL/MOPC mole ratio in micelles” value in series [1] was 0.2 mole ratio. Moreover, the “TAXOL relative to its natural solubility limit” value in series [1] (1 mM in micelle suspension) is 1000 times; in series [2], 250 times. In addition, in series [1] (increasing amounts of TAXOL), the “precipitation of TAXOL from micelles” value was “does not occur significantly for the first four hours, but then proceeds rapidly as higher amounts of TAXOL® are solubilized”.

For the origin of these results see patent US6296870A, “Liposomes containing active agents” (Duke University, priority 1998, dated 2001).
